{
  "sequences": {"note": "By UniProt entry, the sequences of proteins in these tests, tags left out. Where a name states a change or a piece, a line headed by the entry shows the natural chain unless it says otherwise.", "UniProt O15270": "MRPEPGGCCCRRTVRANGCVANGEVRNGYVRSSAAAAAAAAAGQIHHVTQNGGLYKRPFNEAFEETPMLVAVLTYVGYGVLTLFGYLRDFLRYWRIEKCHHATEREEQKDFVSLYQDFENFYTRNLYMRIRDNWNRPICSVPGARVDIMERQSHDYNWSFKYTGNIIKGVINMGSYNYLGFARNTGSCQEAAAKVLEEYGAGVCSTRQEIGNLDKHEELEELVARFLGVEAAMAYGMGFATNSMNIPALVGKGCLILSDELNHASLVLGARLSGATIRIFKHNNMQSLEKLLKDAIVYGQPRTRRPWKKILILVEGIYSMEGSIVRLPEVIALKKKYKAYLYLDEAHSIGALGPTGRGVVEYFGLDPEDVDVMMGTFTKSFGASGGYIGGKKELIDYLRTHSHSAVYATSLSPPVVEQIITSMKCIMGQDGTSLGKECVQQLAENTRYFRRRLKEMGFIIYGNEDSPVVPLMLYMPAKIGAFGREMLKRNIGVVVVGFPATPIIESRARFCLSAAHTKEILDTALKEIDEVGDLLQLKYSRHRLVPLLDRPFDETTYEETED"},
  "source": "patent US20080287479A1",
  "about": "“INHIBITORS OF SERINE PALMITOYLTRANSFERASE” (Pfizer Inc, priority 2006, published 2008)",
  "data": [
    {"biological_target": "Serine Palmitoyl Transferase (SPT); microsomes from HEK 293 cells stably transfected with human LCB2 subunit of SPT (Homo sapiens, UniProt O15270)", "test": "SPT flashplate assay", "format": "biochemical", "settings": "read-out: SPTISF IC50; microsomes of HEK 293 LCB2 cells, 3H-serine and palmitoyl CoA, phospholipid coated flashplate, 18-24 hours at room temperature", "units": {"IC50": "nM"}, "values": [
      {"compound": "O=C(CN1CCC(n2c(=O)[nH]c3cc(-c4nnn[nH]4)ccc32)CC1)c1ccc(Cl)cc1", "IC50": 0.89},
      {"compound": "CCc1ccc(C(O)CN2CCC(n3c(=O)[nH]c4cc(C(=O)NC)c(F)cc43)CC2)cc1", "note": "(stereo not shown)", "IC50": 17},
      {"compound": "COC(=O)c1cc2[nH]c(=O)n(C3CCN(CC(=O)c4ccc(Cl)cc4)CC3)c2cc1F", "IC50": 14},
      {"compound": "COC(=O)c1cc2[nH]c(=O)n(C3CCN(CC(O)c4ccc(Cl)cc4)CC3)c2cc1F", "note": "(stereo not shown)", "IC50": 12},
      {"compound": "O=C(O)c1cc2[nH]c(=O)n(C3CCN(CC(O)c4ccc(Cl)cc4)CC3)c2cc1F", "note": "(stereo not shown)", "IC50": 35},
      {"compound": "CNC(=O)c1cc2[nH]c(=O)n(C3CCN(CC(=O)c4ccc(Cl)cc4)CC3)c2cc1F", "IC50": 6.3},
      {"compound": "O=c1[nH]c(-c2ccc3c(c2)[nH]c(=O)n3C2CCN(CC(O)c3ccc(Cl)cc3)CC2)no1", "note": "(stereo not shown)", "IC50": 3},
      {"compound": "CNC(=O)c1cc2[nH]c(=O)n(C3CCN(CC(F)c4ccc(Cl)cc4)CC3)c2cc1F", "note": "(stereo not shown)", "IC50": 37},
      {"compound": "O=c1[nH]c2cc(-c3nnn[nH]3)ccc2n1C1CCN(CC(O)c2ccc(Cl)cc2)CC1", "note": "(stereo not shown)", "IC50": 3.1},
      {"compound": "CNC(=O)c1cc2[nH]c(=O)n(C3CCN(CC(O)c4ccc(Cl)cc4)CC3)c2cc1F", "note": "(stereo not shown)", "IC50": 5.4}
    ]}
  ]
}
